## Apparent affinities of Ab-14 variants for a coronavirus HR2 peptide

From the AlphaSeq antibody data of Li et al. 2023 (doi:10.1038/s41467-023-39022-2), copy in the FLAb collection.

All variants were tested on one target, the spike HR2 peptide PDVDLGDISGINAS (SARS-CoV-2).

Each scFv is VH, three GGGGS repeats, VL, as in the parent Ab-14, and differs from it in the CDRs of the light chain only.
VH: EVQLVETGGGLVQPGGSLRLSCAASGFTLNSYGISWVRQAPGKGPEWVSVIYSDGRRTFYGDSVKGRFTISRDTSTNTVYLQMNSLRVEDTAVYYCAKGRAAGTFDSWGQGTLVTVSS
VL: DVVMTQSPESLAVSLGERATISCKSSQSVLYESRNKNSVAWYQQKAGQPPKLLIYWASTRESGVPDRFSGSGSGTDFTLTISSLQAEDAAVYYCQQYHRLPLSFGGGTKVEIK

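These sequences belong to a second round, designed from the earlier measurements on random variants of the parent. Their group label is 14L_GP_HC (GP: Gaussian process model; HC: hill climbing; a sequence that several methods proposed may carry one label only). AlphaSeq pools MATa yeast showing the antibodies with MATalpha yeast showing the peptide. After mating in shaken culture at 30 °C for 16 h, diploids were selected and their barcode pairs sequenced. Each replicate has its own calibration line, from reference interactions of the BCL2 family. The assay was run in six technical replicates.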

Each variant is given by its three light chain CDRs, as the data file delimits them; those of the parent are KSSQSVLYESRNKNSVA, WASTRES, QQYHRLPLS. Affinities are written as log10 Kd with Kd in nM; a lower number is a better binder. Where no diploid with the target was found in that replicate, the entry reads "n.d.": below detection, most likely a poor binder, though not proof of it.

CDR-L1 | CDR-L2 | CDR-L3 | log10 Kd (nM) by replicate | control signals
KVSVSYLLESRNKNSVA | EASTRES | QQYHRLPLS | 0.33 / 0.26 / 0.37 / 0.49 / 0.49 / 0.67 | 1/18 (2.76)
KCSQSVKFESRNKNSVA | DASTRES | QQYHRLPLS | 0.59 / 0.81 / 0.50 / 1.16 / 0.40 / 1.41 | 3/18 (2.36)
KMEQGVLYESRNKGSVA | HASVRES | QQYHRLPLS | -0.17 / -0.28 / -0.23 / -0.49 / -0.33 / 0.01 | 1/18 (3.61)
KLSQSVKFESRNKNSVA | DASTRES | QQYHRLPLS | 0.20 / 0.09 / 0.06 / 0.20 / 0.08 / 0.11 | 1/18 (2.27)
KQQQSVLYESRNKNSVA | DASTRSS | QQYHRLPLS | -0.20 / -0.40 / 0.20 / -0.01 / -0.20 / -0.11 | 2/18 (1.99)
KFSQSVAYEDRTKNSVA | NASTRES | QQYHRLPLS | -0.16 / 0.09 / 0.25 / -0.40 / -0.10 / 0.07 | 0/18
KSGQGVLYESRNKNQVA | GASTRES | QQYHRLPLS | 0.34 / 0.54 / 0.52 / 0.44 / 0.42 / 0.67 | 1/18 (3.13)
KSSQSELIESRNKNSVA | DASTRES | QQYHRLPLS | -0.19 / -0.39 / -0.31 / -0.32 / -0.33 / 0.05 | 1/18 (1.89)
KVSQSVLMESRNANSVA | DASTRES | QQYHRLPLS | 0.55 / 0.37 / 0.51 / 0.49 / 0.52 / 0.28 | 0/18
KVWQSWLYESRNKNSVA | GASTRES | QQYHRLPLI | 2.09 / 3.31 / n.d. / 2.79 / 3.10 / n.d. | 1/18 (3.22)
KSLGSVLYESRDKNSVA | HASTRED | QQYHRLPLS | 1.10 / 0.15 / 1.01 / 0.54 / 0.79 / 0.74 | 0/18
KSSQEYHYESRNKNSVA | GASTRES | QQYHRLPLS | 0.61 / 0.33 / 0.08 / 0.38 / 0.25 / 0.42 | 1/18 (3.23)
KLPNSTLYESRNKNSVA | NASTRES | QQYHRLPLS | -0.04 / 0.07 / -0.34 / 0.09 / 0.39 / 0.13 | 0/18
KSSISYLYESRNSNSVA | EASTREQ | QQYHRLPLS | 2.14 / 1.03 / 0.36 / 0.94 / 0.85 / 0.72 | 0/18
KSSISYLYESENKNSVA | AASYRES | QQYHRLPLS | 0.94 / 0.87 / 1.27 / 0.86 / 1.03 / 0.85 | 0/18
KLQQSVLYESRNKNNVA | DASTRED | QQYHRLPLS | -0.19 / -0.38 / -0.43 / -0.82 / -0.73 / -0.68 | 0/18
NLSQSWLYESRNKNSVA | GANTRES | QQYHRLPLS | -0.04 / -0.18 / -0.23 / -0.33 / -0.18 / -0.14 | 2/18 (3.85)
KSGQGVLYESRNWNSVA | GASTREQ | QQYHRLPLS | 0.25 / -0.03 / 0.20 / 0.01 / 0.07 / 0.35 | 1/18 (1.32)
KSSWSYLYESGNKNSVA | HASTRED | QQYHRLPLS | 0.77 / 0.73 / 0.49 / 0.47 / 0.83 / 0.86 | 0/18
KVSQSVLYESGTKNSVA | NASRRES | QQYHRLPLS | 0.81 / 0.50 / 0.38 / 0.16 / 0.39 / 0.54 | 2/18 (2.34)
KSSWSQLYESNNKNSVA | HASTRED | QQYHRLPLS | 0.31 / 0.05 / 0.14 / -0.22 / -0.09 / 0.11 | 6/18 (2.62)
KFSDSVLLESRDKNRVA | NASTRES | QQYHRLPLS | 0.20 / 0.34 / -0.14 / 0.18 / 0.20 / 0.48 | 0/18
HSSPSVLYESRNKNAVA | NASTRES | QQYHRLPLS | 0.02 / -0.01 / -0.01 / -0.08 / -0.16 / 0.30 | 1/18 (2.28)
KMSQSVLMEGRNKNSVA | DASLRES | QQYHRLPLS | 0.14 / 0.27 / -0.01 / -0.05 / -0.27 / -0.15 | 0/18
KVQQSVVYEGRNKNSVA | HASTRED | QQYHRLPLS | 0.42 / 0.10 / 0.16 / -0.07 / -0.18 / 0.08 | 0/18
KVSQSTLYESRNKNSVA | MASTRES | QQYHRLPLS | 0.21 / 0.47 / 0.73 / -0.04 / 0.06 / 0.23 | 1/18 (2.28)
ASSQSVLFESRNKNSVA | DASTRES | QQYHRLPLS | 0.13 / 0.26 / -0.17 / 0.02 / -0.04 / 0.08 | 0/18
KSSESFLYESRNKNSVA | EASTRES | QQYHRLPLS | 0.39 / 0.34 / 0.22 / 0.33 / 0.37 / 0.71 | 0/18
KSLQSQEYESRNKNSVA | NASTRED | QQYHRLPLS | 1.10 / 1.12 / 1.08 / 0.63 / 0.55 / 0.89 | 3/18 (2.30)
KSMQSQEYESRNKNSVA | HASTRED | QQYHRLPLS | 0.51 / 0.09 / 0.05 / 0.18 / 0.02 / 0.24 | 4/18 (3.17)
KLSQSWLYESRNKNSVA | GASTRES | QQYHRLPLI | 0.11 / -0.44 / -0.54 / -0.94 / -0.86 / -0.52 | 0/18
KESQSVLHEWRNKNSVA | DASTRMS | QQYHRLPLS | 0.06 / -0.20 / 0.26 / 0.02 / 0.03 / 0.39 | 1/18 (2.20)

Extract of 2 entries:

CDR-L1 | CDR-L2 | CDR-L3 | log10 Kd (nM) by replicate | control signals
ASSQSVLFESRNKNSVA | DASTRES | QQYHRLPLS | 0.13 / 0.26 / -0.17 / 0.02 / -0.04 / 0.08 | 0/18
KMEQGVLYESRNKGSVA | HASVRES | QQYHRLPLS | -0.17 / -0.28 / -0.23 / -0.49 / -0.33 / 0.01 | 1/18 (3.61)

Background: pairings of all light chain designs with three empty control strains gave a value in 4% of cases (median 2.64, 5th percentile 1.59). Values in that range, when seen in few replicates, are hard to tell from nonspecific mating. Also given: how often the same scFv was detected with the empty control strains, with their mean in brackets. Values of this round are not directly comparable with the first-round values of the same sequences. In the paper, a design with two or fewer of six values counts as a poor binder.